Target: Substance-K receptor (Cavia porcellus) (UniProt Q64077)
Assay: Antagonistic activity against Tachykinin receptor 2 binding to [b-Ala8] NKA(4-10) in isolated guinea pig trachea

Chains of the proteins cited; added tags and fusions are not shown.
UniProt Q64077, whole entry: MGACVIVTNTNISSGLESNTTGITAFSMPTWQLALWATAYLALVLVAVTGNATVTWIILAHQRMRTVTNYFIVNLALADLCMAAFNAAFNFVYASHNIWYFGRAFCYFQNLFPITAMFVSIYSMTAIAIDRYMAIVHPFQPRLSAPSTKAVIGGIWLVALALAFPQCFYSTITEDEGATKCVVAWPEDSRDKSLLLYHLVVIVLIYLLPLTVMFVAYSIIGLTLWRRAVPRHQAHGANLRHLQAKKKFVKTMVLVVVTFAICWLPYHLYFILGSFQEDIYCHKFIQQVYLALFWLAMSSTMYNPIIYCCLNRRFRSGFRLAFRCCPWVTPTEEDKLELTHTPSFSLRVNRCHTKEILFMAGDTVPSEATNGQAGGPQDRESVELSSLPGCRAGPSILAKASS

With `CN(C[C@H](CCN1CCC(O)(c2ccccc2)CC1)c1ccc(Cl)c(Cl)c1)C(=O)c1ccccc1` the pKb was 9.5.
